These are literature values, as cited in patent publication US20200188476A1, “ANTI-MICROBIAL AGENT-POLYMER CONJUGATES AND METHODS OF USE THEREOF” (The Regents of the University of California, priority 2017, published 2020).

For this series the following is noted: compared with polymyxin B.

For the substance “Polymyxin B nonapeptide [nonapeptide of polymyxin B]”, the in vivo toxicity entry was “significantly less than that of polymyxin B itself”.
